From PMC12606464, “Investigating NFE2L1 activators for targeted protein aggregate clearance: a follow-up study” (RSC Medicinal Chemistry, 2025)

System: SNCA-EGFP
Experiment: SNCA-EGFP degradation in SH-SY5Y cells
Format: cell-based, human
Protocol: This reporter is prone to aggregation because of its slow protein turnover. To assess compound efficacy, we measured the fluorescence signal of GFP-tagged synuclein within aggregates.
The GFP fluorescence signal was then normalized to that of the DMSO control and the cell number. The experiment was performed in at least five biological replicates. Statistical analysis was performed using paired t-tests with Holm–Šídák correction for multiple comparisons (α = […]
SH-SY5Y cells stably expressing SNCA-EGFP were seeded on a plate and allowed to […]
tadalafil (5 µM), or RUN compounds at a concentration of 1 µM or treated with an equivalent volume of DMSO dissolved in buffer as a vehicle control. The treatment was performed for 16 hours and then fluorescence was measured. The GFP signal intensity was normalized to both the DMSO control and the cell count.

SMILES: O=[N+]([O-])c1ccc(-c2nc(-c3ccncc3)c(-c3ccc(F)cc3)[nH]2)cc1 [PD169316, reference compound]
- EGFP-SNCA aggregation (GFP signal): reduction
